Source: PubChem BioAssay (National Center for Advancing Translational Sciences (NCATS))
Rows were chosen to be rich in hits. Some 0.46% of all compounds tested hit in one or more screens of this group.
PKM2 act = PKM2 (human) enzyme activation; P14618; purified PKM2, Kinase-Glo ATP luminescence, activation; response scale: 0% is enzyme alone, no compound; Potency, µM (series often up to 57.5 µM), most hits filed as activators; actives 0.34% (n = 260,000); note: nearly all actives have a fitted effect of over 55% in size
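ATP formation by purified human PK-M2, quantified via coupled luciferase luminescence after 1 h at room temperature with 0.1 mM ADP and 0.5 mM PEP final.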
Chronic BCR inh = chronic active BCR signaling inhibition. actives 0.05% (n = 340,000). AID 493014. ABC-DLBCL IkBa-CBG/CBR reporter, luminescence ratio, 4 h. Potency, µM (top dose mostly 46.1 µM), hits mostly inhibitors; active = well fitted inhibition curve with a large enough effect in the signal ratio, with a control signal flat, not every such curve was filed as active; inconclusive = small, poorly fitted or top-dose-only effect, or effect the other way, or a change in a side signal; the % refers to the signal ratio
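TMD8 human ABC-DLBCL cells with doxycycline-inducible IκBα–green luciferase fusion and unfused red luciferase, in 0.5% FBS medium; compounds up to 46 uM, 4 h at 37C. Green/red luminescence ratio, filter-overlap corrected, fitted to concentration-response curves.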
miR-21 reporter = miR-21 reporter, rising signal. 340,000 tested, under 10 active. Potency, µM (highest dose often 38.3 µM). HeLa miR-21 FLuc reporter, luciferase, 48 h. AID 2288; active = well fitted rising curve with a large enough effect; inconclusive = small, poorly fitted or top-dose-only effect; inactive = no such curve, though single readings can be large or run the other way;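 further: miR-21 action dims this reporter so a rising signal means less miR-21 action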
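Compounds were titrated across several concentrations (up to approximately 40 uM) and incubated 48 hours with HeLa miR-21-FLuc reporter cells (miR-21 target sequence downstream of FLuc, endogenous miR-21). Readout was firefly luciferase luminescence after lytic detection reagent.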
Pin1 inhibitor = blocks the human prolyl isomerase Pin1; Q13526; Pin1 FP peptide displacement, HiFluor488, 10 min; actives 0.009% (n = 390,000); Potency, µM (doses to about 115 µM), usual class: inhibitors; active = well fitted inhibition curve with a large enough effect in the polarisation, with a control signal flat, not every such curve was filed as active; inconclusive = small, poorly fitted or top-dose-only effect, or effect the other way, or a change in a side signal; inactive = no such curve, though single readings can be large or run the other way; the % refers to the polarisation
PINK1 modulator = changes PINK1 expression; PINK1 immunofluorescence, high-content cytometry, 24 h; actives 0.2% (n = 410,000); Potency, µM (doses to about 76.6 µM), hits mostly activators; active = well fitted activation curve with a large enough effect; inconclusive = small, poorly fitted or top-dose-only effect; cell line not stated here; note: nearly all actives have a fitted effect of over 65% in size
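Compound titrations (5 concentrations, 24 h) on a stable cell line; DMSO and CCCP controls. Endpoint: fixed-cell PINK1 immunofluorescence with mitochondrial, cell and nuclear markers, scanned by microplate cytometer.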
B2AR arrestin = agonists driving beta-arrestin recruitment to human beta2-adrenergic receptor | Potency, µM (titrated, usually from 46.1 µM), hits mostly activators | actives 0.02% (n = 330,000) | beta-arrestin recruitment to beta2AR, cell-based reporter; note: nearly all actives have a fitted effect of over 65% in size
Numbers stand for hits; - = inactive; ? = inconclusive; . = no result. Unless noted, calls come from the whole dose curve; as a rule, active = well fitted curve in the direction sought with a large enough effect; inconclusive = small, poorly fitted or top-dose-only effect, or another doubt; inactive = no such curve, though single readings can be large; an effect the other way counts as inactive or inconclusive.

SMILES	PKM2 act	Chronic BCR inh	miR-21 reporter	Pin1 inhibitor	PINK1 modulator	B2AR arrestin
CCN1CC=C2C(C#N)=C(N)C(C#N)(C#N)[C@H](c3cccc(OC)c3OC)[C@H]2C1	-	-	-	?	?	-
CN1CC=C2C(C#N)=C(N)C(C#N)(C#N)[C@H](c3cccc(Cl)c3)C2C1 (some centres not stated)	-	-	-	?	11µM	-
COc1cccc(C2C3CN(C)CC=C3C(C#N)=C(N)C2(C#N)C#N)c1OC (configuration not stated)	-	-	-	?	35µM	-
CCC(=O)NC(c1ccco1)c1cc(Cl)c2c(c1O)NCCC2 (configuration not stated)	.	.	.	-	.	.
N#Cc1nc(Nc2cccc(F)c2)nc(NC2CCCC2)n1	.	.	.	-	.	.
CC(=O)N[C@@H](C)C(=O)NCC1Cc2cccc(-c3ccccc3C(F)(F)F)c2O1 (some centres not stated)	.	.	.	.	-	.
CCCC1C2CN(C(C)C)CC=C2C(C#N)=C(N)C1(C#N)C#N (configuration not stated)	-	-	-	?	10µM	-
Cc1ccc(S(C)(=O)=NC(=O)NC(=O)c2c(F)cccc2Cl)cc1 (configuration not stated)	-	-	-	-	-	-
Cc1ccc(S(=O)(=O)/N=c2\ccc(Cl)cn2C(F)F)cc1	25µM	?	-	-	-	-
COc1ccccc1N=Nc1ccc(O)c2ncccc12	.	-	-	?	-	-
CCS(=O)(=O)c1ccc(N=Nc2ccc(O)c3ncccc23)c(OC)c1	-	-	?	-	14µM	-
COc1ccccc1NC(=O)/C(C#N)=C/C=C/c1ccco1	-	-	-	?	2.8µM	-
COc1ccccc1NC(=O)/C=C\c1ccco1	.	?	-	-	-	-
NC(=O)C1CCN(c2ncnc(-c3ccc4c(c3)OCCCO4)n2)CC1	.	.	.	-	.	.
O=[N+]([O-])c1ccc2c(c1)ncn2-c1ccccc1	-	-	-	-	-	-
O=[N+]([O-])c1ccc2c(c1)ncn2CCc1ccccc1	7.1µM	-	-	-	-	-
CS(=O)(=O)N1CCN(c2ccc([N+](=O)[O-])c(NCc3ccccc3)c2)CC1	-	-	-	-	-	-
CS(=O)(=O)N1CCN(c2ccc([N+](=O)[O-])c(NCc3cccnc3)c2)CC1	10µM	-	-	-	-	-
O=C(NNc1c(Cl)cccc1Cl)c1sccc1Cl	16µM	-	-	-	-	-
O=C(O)Cc1cc(F)c(S(=O)(=O)N2CCN(S(=O)(=O)c3ccc4c(c3)OCCO4)CC2)cc1F	.	.	.	-	.	.
Nc1nnc(SCc2nc3scc(-c4ccccc4)c3c(=O)[nH]2)s1	-	-	-	?	-	-
Cc1nnc(SCc2nc3scc(-c4ccccc4)c3c(=O)[nH]2)s1	28µM	-	-	?	-	-
c1coc(-c2nc(-c3ccco3)c(-c3ccco3)nc2-c2ccco2)c1	?	-	-	?	?	-
Nc1nc(-c2ccco2)c(-c2ccco2)s1	22µM	?	-	?	-	-
O=S(=O)(Nc1nc2ccccc2nc1Nc1cccc(S(=O)(=O)N2CCCCC2)c1)c1ccccc1	-	-	-	.	25µM	-
SMILES	PKM2 act	Chronic BCR inh	miR-21 reporter	Pin1 inhibitor	PINK1 modulator	B2AR arrestin
COc1ccc(S(=O)(=O)Nc2cccc(S(=O)(=O)N3CCCCCC3)c2)cc1	-	-	-	-	-	-
CCCS(=O)(=O)NCc1c(C)ncc2c1CCN(C(=O)c1ccc3[nH]c4c(c3c1)CCCC4)C2	.	.	.	.	-	.
CC(=O)N1CCc2ccc(S(=O)(=O)Nc3ccccc3Cl)cc21	13µM	-	-	-	-	-
CC(=O)N1CCCc2cc(S(=O)(=O)Nc3ccccc3C)ccc21	-	-	-	-	-	-
Cc1ccc(NC(=O)c2ccc3c(c2)C(=O)N(CC2CCCO2)C3=O)cc1C (configuration not stated)	-	?	-	-	-	7.1µM
COc1ccc(N2CC(O)=C(c3nc4ccccc4s3)C2=N)cc1	-	-	-	-	11µM	-
COc1cccc(N2CC(O)=C(c3nc4ccccc4s3)C2=N)c1	-	?	-	-	-	-
